Where only a bound is given, the exact number is not on record here.

The target of the assay is T1, PEAK2^IDR1 (residues 802-1406), from insect cells, phosphorylated by Src (human, UniProt Q86YV5 802-1406, phosphorylated with Src kinase, sites not stated; phosphorylation of the tandem site 14-3-3 motif (RAASSP) found by proteomic analysis; biotin (EZ-Link NHS-PEG4-Biotin, 1:1 molar ratio)).
T1 construct: human PEAK2 (SgK223, PRAG1), UniProt Q86YV5, residues 802-1406; also called PEAK2-IDR1 (+ Src phosphorylation); source: Sf21 insect cells, purified; phosphorylated in vitro with recombinant Src kinase domain
T1 sequence (looked up): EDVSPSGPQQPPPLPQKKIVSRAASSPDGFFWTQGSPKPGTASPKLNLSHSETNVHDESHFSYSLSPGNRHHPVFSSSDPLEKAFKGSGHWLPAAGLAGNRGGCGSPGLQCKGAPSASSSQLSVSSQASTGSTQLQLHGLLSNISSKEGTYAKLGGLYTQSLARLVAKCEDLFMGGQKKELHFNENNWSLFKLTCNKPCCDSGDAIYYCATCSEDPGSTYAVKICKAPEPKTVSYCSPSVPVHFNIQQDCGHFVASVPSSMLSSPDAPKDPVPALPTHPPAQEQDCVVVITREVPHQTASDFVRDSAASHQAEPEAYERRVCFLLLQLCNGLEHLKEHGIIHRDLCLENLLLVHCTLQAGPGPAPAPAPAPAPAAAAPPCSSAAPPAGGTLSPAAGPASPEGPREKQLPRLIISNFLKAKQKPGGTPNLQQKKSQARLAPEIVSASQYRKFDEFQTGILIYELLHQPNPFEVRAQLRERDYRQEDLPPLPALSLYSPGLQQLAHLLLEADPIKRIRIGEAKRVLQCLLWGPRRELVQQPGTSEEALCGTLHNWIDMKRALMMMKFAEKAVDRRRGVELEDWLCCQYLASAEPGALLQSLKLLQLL
The experiment in a line: SPR; biotinylated PEAK proteins (with or without Src phosphorylation) captured with a biotin CAPture kit; Grb2 FL, Grb2 SH2, CrkII SH2, CrkII FL monomer or dimer as analytes; Biacore 8K+, 20 °C, HBS-TP with NaCl raised to 500 mM; 1 M NaCl regeneration; steady state. To be noted: both partners purified.

B1: Grb2 SH2 domain (Grb2^SH2) (domain or fragment, human, UniProt P62993-1 60-152, looked up)
chain: WFFGKIPRAKAEEMLSKQRHDGAFLIRESESAPGDFSLSVKFGNDVQHFKVLRDGAGKYFLWVVKFNSLNELVDYHRSTSVSRNQQIFLRDIE
modifications: biotin (EZ-Link NHS-PEG4-Biotin, 1:1 molar ratio) where it was immobilised (a1)
notes: SH2 domain of human Grb2; This construct is not in the list of the methods; the other adapter constructs were made in E. coli C41 (DE3) with an N-terminal His8 tag
Consider B1, for which the Kd is > 50 µM.

For the origin of these results see publication PMC10279719 (Nature Communications, 2023).
